Sampled rows, rich in hits. Any-hit rate of the full collection: about 2.8%.
Wnt act = Wnt/beta-catenin pathway activation; Wnt/beta-catenin reporter cell assay, activator, plate reader; activation, % at 9.35 µM; hit rate 1.2% among 300,000; AID 743398; in the data active = activation above about 30%, passing the limit was not always enough; inconclusive = no clear call, values can overlap the other calls;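 also: 0% = neutral control wells and 100% = positive control wells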
esBAF inh = inhibitors of esBAF chromatin remodeling in mouse ES cells | Bmi1-luciferase knock-in reporter, 24 h; 100% = twice the neutral-well signal | reporter increase, % at 12.5 µM | hit rate 2% among 350,000 | AID 602393; in the data active = activation above about 40%; inconclusive = no clear call, values can overlap the other calls;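 also: 0% = median of the plate's neutral control wells and 100% = double that signal; a rise in the Bmi1 reporter signal indicates esBAF inhibition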
MITF TRPM1 HTS = activators of MITF-driven TRPM1 promoter activity in SK-MEL-5 cells | SK-MEL-5 TRPM1-promoter luciferase, 24 h; % of positive control, neutral wells = 0 | activation, % at 12.5 µM | hit rate 0.75% among 300,000;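 active = mean activation of at least 80% with every replicate also reaching 80%; inconclusive = mean reaches 80% but some replicate falls short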;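 also: 0% = neutral control wells and 100% = parthenolide positive control wells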
PglD DTNB = PglD (C. jejuni) enzyme inhibition | inhibition, % at 12.5 µM | AID 602405 | hit rate 0.098% among 360,000 | purified PglD enzyme, DTNB colorimetric CoA detection; in the data active = inhibition above about 16%, passing the limit was not always enough; inconclusive = no clear call, values can overlap the other calls
UUG fidelity = modulators of start codon recognition fidelity in yeast; AID 602363; hit rate 0.13% among 350,000; activity score, % at 18.7 µM; S. cerevisiae UUG-firefly luciferase reporter, luminescence/redox ratio;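 active = replicate mean at a twofold rise or more, about +100% in these data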;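 note: firefly luciferase made from a UUG start codon reports start codon fidelity; reporter light over untreated wells divided by growth signal over untreated wells; some hits fall short of that in this replicate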
miR-122 sensor = blocks miR-122 activity in Huh7 sensor cells | AID 602342 | activation (reporter increase), % at 12.5 µM | Huh7 miR-122 Renilla luciferase sensor, 48 h; neutral wells = 0, positive control = 100 | hit rate 0.3% among 340,000;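 active = mean replicate activation score at least 90 and every replicate individually at or above 90; inconclusive = only one of the two criteria met; inactive = neither criterion met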;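 also: higher luciferase means less miR-122 activity so hits act as miR-122 inhibitors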
Active calls of the source: *; u = inconclusive; x = no result given; [ ] = another dose, or the depositor's remark.

SMILES | Wnt act | esBAF inh | MITF TRPM1 HTS | PglD DTNB | UUG fidelity | miR-122 sensor
CCNC(=O)Nc1ccc2c(c1)C(=O)N(C)[C@@H]1CC[C@@H](CC(=O)Nc3ccccc3)O[C@@H]1CO2 | x | -1.2 | x | 1.2 | 20.5 | 0.3[16.7 µM]
Fc1cccc(Cl)c1CSc1nnc(CN2CCOCC2)n1-c1ccccc1 | x | 0.2 | -1.1 | -6.6 | -13.1 | 14.3
Clc1cccc(Cl)c1CSc1nnc(CN2CCOCC2)n1-c1ccccc1 | x | -13.1 | -8.4 | 4.0 | -20.4 | 125.8*
Cc1noc(C)c1NC(=O)N(C)C[C@H]1Oc2ccc(N(C)C)cc2CC(=O)N([C@H](C)CO)C[C@@H]1C | x | 3.1 | x | -17.6 | -9.5 | -0.9[16.7 µM]
Cc1ccc(-c2oc3ccccc3c(=O)c2O)cc1 | 23.2 | 47.6* | 34.9 | -6.7 | -17.8 | 11.5
CO[C@@H]1CN(C)C(=O)c2cc(NC(C)=O)ccc2OC[C@@H](C)N(C(=O)C2CCC2)C[C@H]1C | x | 0.7 | x | 5.1 | 1.3 | 1.7[16.7 µM]
O=C(C[C@@H]1C=C[C@@H](NC(=O)Nc2cc(F)ccc2F)[C@@H](CO)O1)NCc1ccccn1 | x | -1.3 | x | -1.2 | -7.1 | x
NS(=O)(=O)c1ccc(N/N=C/C=C/c2ccccc2[N+](=O)[O-])cc1 | 25.1 | 83.1* | 64.5 | -9.6 | -9.3 | 3.1
O=C(O)c1cc(N/N=C/C=C/c2ccccc2[N+](=O)[O-])ccc1Cl | 60.4* | 35.2 | 55.6 | 0.0 | -26.3 | -5.5
C[C@@H]1CCCCO[C@@H](CN(C)C(=O)C2CCCCC2)[C@H](C)CN([C@@H](C)CO)C(=O)c2cc(NC(=O)c3ccncc3)ccc2O1 | x | 27.6 | x | 3.8 | -1.6 | -11.6[16.7 µM]
COc1ccc(-c2csc(N(C)C(=O)c3cccs3)n2)cc1 | 38.1* | u | 96.6* | -1.6 | -4.9 | -4.1
COc1ccc(-c2csc(N(Cc3ccco3)C(=O)c3cccs3)n2)cc1 | 40.5* | 21.9 | -3.4 | -1.9 | -11.1 | 5.6
CCN(CC)CCCN(C(=O)c1cccs1)c1nc(-c2ccc(OC)cc2)cs1 | x | -5.7 | x | -4.0 | 1.0 | -20.0
CN(C(=O)c1cccc(COc2ccc(Cl)cc2Cl)c1)c1ccccc1 | x | 72.3* | 38.3 | -2.8 | -7.4 | -2.0
O=C(NCc1ccccc1)c1cnc(Cl)c(Cl)c1 | 4.0 | 5.9 | 13.1 | -3.7 | -4.2 | -5.7
O=C(NCc1ccccc1)c1cccc(COc2ccccc2Cl)c1 | -1.2 | 45.3* | 41.3 | -3.8 | 6.3 | 11.1
O=C(NCc1ccccc1)c1cccc(COc2cc(Cl)ccc2Cl)c1 | 10.6 | 70.7* | 69.6 | 3.8 | -14.7 | -4.0
O=C(c1cccc(COc2cccc3ccccc23)c1)N1CCCC1 | u | 73.6* | x | 4.7 | 24.5 | 1.5
C[C@@H]1CN([C@H](C)CO)S(=O)(=O)c2ccc(C#C[C@@H](C)O)cc2O[C@H]1CN(C)C(=O)Cc1ccccn1 | x | -2.0 | x | 15.7 | 2.8 | 7.0[16.7 µM]
COc1ccc(OC)c(-c2cc(C(=O)N/N=C(\C)c3cccnc3)c3ccccc3n2)c1 | -5.5 | -7.7 | -1.1 | -3.2 | -11.7 | x
NNC(=O)c1cc(-c2cccs2)nc2ccccc12 | -1.8 | x | -1.2 | x | x | x
C/C(=N\NC(=O)c1cccs1)c1cccnc1 | 5.5 | x | 18.3 | x | x | x
CCc1ccc(C(=O)N/N=C(\C)c2cccnc2)s1 | 10.6 | 43.3* | 109.1* | 3.5 | 7.3 | 1.3
CCOc1ccc(-c2cc(C(=O)N/N=C(\C)c3cccnc3)c3ccccc3n2)cc1 | 19.8 | 19.7 | 88.0* | -6.3 | -15.7 | -1.1
C/C(=N\NC(=O)c1cc(-c2cccs2)nc2ccccc12)c1ccccn1 | -5.1 | -60.4 | -86.1 | -3.0 | -34.3 | 151.4*

Continuation:
SMILES | Wnt act | esBAF inh | MITF TRPM1 HTS | PglD DTNB | UUG fidelity | miR-122 sensor
Cc1ccc(S(=O)(=O)N(C)C[C@@H]2Oc3ccc(NC(=O)CCC(F)(F)F)cc3C(=O)N([C@H](C)CO)C[C@@H]2C)cc1 | x | -2.1 | x | 2.0 | 2.7 | 2.8[16.7 µM]
O=C(CCN1CCCCC1)NCC[C@@H]1CC[C@H](NS(=O)(=O)c2cccc(Cl)c2)[C@@H](CO)O1 | x | 3.6 | x | x | x | x
Cn1cc([N+](=O)[O-])c(C(=O)Nc2ccc(C(=O)N3CCCCC3)cc2)n1 | -1.1 | x | -8.1 | x | x | x
Cn1cc([N+](=O)[O-])c(C(=O)Nc2ccc(C3CCCCC3)cc2)n1 | 46.0* | x | -4.9 | x | x | x
C[C@H](NC(=O)[C@@H]1[C@@H](CO)[C@@H]2Cn3c(cccc3=O)[C@@H]2N1CC1CC1)c1ccccc1 | x | 0.2 | x | -2.5 | -4.9 | 1.7[16.7 µM]
CC(C)Sc1nnc(-c2c[nH]c3ccccc23)n1C | 20.1 | 40.6* | x | -0.1 | -15.6 | -7.5

Ordered by heavy-atom count (falling): some entries from above.
SMILES | Wnt act | esBAF inh | MITF TRPM1 HTS | PglD DTNB | UUG fidelity | miR-122 sensor
Cc1ccc(S(=O)(=O)N(C)C[C@@H]2Oc3ccc(NC(=O)CCC(F)(F)F)cc3C(=O)N([C@H](C)CO)C[C@@H]2C)cc1 | x | -2.1 | x | 2.0 | 2.7 | 2.8[16.7 µM]
Cn1cc([N+](=O)[O-])c(C(=O)Nc2ccc(C3CCCCC3)cc2)n1 | 46.0* | x | -4.9 | x | x | x
CC(C)Sc1nnc(-c2c[nH]c3ccccc23)n1C | 20.1 | 40.6* | x | -0.1 | -15.6 | -7.5

High-throughput results deposited in PubChem BioAssay by Broad Institute.
